Measurements: PubChem BioAssay AID492965 (The Scripps Research Institute Molecular Screening Center, 2010)
Only a part is listed here, and it is no random draw. The source made the active and inactive calls.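 The calls were made as follows: active = inhibition above a per-plate limit, the mean inhibition of that plate's test compounds plus 3 SD (cut at about 25% in these data); inactive = the rest.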

Experiment: nonselective Gq signaling antagonists, untransfected CHO – cell-based, fluorescence, CHO-K1, triplicate, counter-screen for OX1R antagonist project (AID 492965);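 also: 0% = ATP challenge with DMSO and 100% = DMSO without ATP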
Details: parental CHO-K1, ATP-induced calcium, Fluo-8 fluorescence; at 5.6 µM; active compounds read high
In the case of `CP(=O)(Nc1ccc2c(c1)OCCO2)Oc1ccccc1` (stereo unspecified), the inhibition was inactive: 2.58%.
